{"sequences": {"note": "Chains of the proteins cited; added tags and fusions are not shown. Lines headed by an entry give the natural chain unless they say otherwise; changes in a name come on top.", "UniProt Q14833": "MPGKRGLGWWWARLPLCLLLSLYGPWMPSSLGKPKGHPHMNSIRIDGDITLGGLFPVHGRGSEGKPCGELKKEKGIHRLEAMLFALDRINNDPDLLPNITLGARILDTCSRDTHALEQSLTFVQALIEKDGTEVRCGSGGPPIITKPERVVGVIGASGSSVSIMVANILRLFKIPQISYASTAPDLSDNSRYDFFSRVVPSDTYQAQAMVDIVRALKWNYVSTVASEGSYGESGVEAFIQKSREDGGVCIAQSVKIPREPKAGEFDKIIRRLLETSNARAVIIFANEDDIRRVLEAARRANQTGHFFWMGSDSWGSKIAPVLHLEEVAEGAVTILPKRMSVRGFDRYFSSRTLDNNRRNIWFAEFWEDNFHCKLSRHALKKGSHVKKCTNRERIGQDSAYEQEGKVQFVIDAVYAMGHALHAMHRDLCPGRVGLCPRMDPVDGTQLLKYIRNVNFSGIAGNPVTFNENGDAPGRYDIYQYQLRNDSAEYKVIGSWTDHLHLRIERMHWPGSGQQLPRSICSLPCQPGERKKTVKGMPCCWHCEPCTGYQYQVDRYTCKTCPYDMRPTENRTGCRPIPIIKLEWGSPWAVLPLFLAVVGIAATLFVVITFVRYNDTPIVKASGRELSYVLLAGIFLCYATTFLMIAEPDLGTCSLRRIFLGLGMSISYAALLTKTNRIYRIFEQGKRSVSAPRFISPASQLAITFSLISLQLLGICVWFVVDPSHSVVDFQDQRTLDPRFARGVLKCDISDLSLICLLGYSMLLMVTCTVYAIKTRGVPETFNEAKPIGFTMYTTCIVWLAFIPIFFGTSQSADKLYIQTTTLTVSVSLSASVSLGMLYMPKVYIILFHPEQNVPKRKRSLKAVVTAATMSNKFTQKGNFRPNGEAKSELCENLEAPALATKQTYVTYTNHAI"}, "source": "ChEMBL document CHEMBL1129330", "about": "“Synthesis and pharmacological characterization of all sixteen stereoisomers of 2-(2'-carboxy-3'-phenylcyclopropyl)glycine. Focus on (2S,1'S,2'S,3'R)-2-(2'-carboxy-3'-phenylcyclopropyl)glycine, a novel and selective group II metabotropic glutamate receptors antagonist” (J Med Chem, 1996)", "key": {"[1]": {"target": "T1, Metabotropic glutamate receptor 4 (Homo sapiens, UniProt Q14833)", "experiment": "Binding affinity towards metabotropic glutamate receptor mGluR4a"}, "[2]": {"target": "T1, Metabotropic glutamate receptor 4", "experiment": "Effective concentration against forskolin-stimulated cAMP formation in BHK cells expressing mGluR4 receptor", "format": "functional, cell-based"}, "[3]": {"target": "T1, Metabotropic glutamate receptor 4", "experiment": "Concentration required for the half-maximal inhibition of cAMP hydrolysis in BHK cells expressing mGluR4", "format": "functional, cell-based"}, "[4]": {"target": "T1, Metabotropic glutamate receptor 4", "experiment": "Concentration required for the half-maximal inhibition of cAMP formation in BHK cells expressing mGluR4", "format": "functional, cell-based"}, "[5]": {"target": "T1, Metabotropic glutamate receptor 4", "experiment": "Effective concentration of compound against forskolin-stimulated cAMP formation in BHK cells expressing mGluR4 receptor", "format": "functional, cell-based"}}}
{"compound": "N[C@@H](C(=O)O)[C@@H]1[C@H](C(=O)O)[C@@H]1c1ccccc1", "values": [{"measurement": "Ki", "setting": "[1]", "result": "> 280", "unit": "µM"}, {"measurement": "EC50", "setting": "[2]", "result": "> 300", "unit": "µM"}, {"measurement": "IC50", "setting": "[3]", "result": "> 300", "unit": "µM"}]}
{"compound": "N[C@H](C(=O)O)[C@@H]1[C@@H](C(=O)O)[C@H]1c1ccccc1", "values": [{"measurement": "Ki", "setting": "[1]", "result": "> 280", "unit": "µM"}, {"measurement": "EC50", "setting": "[2]", "result": "> 300", "unit": "µM"}, {"measurement": "IC50", "setting": "[3]", "result": "> 300", "unit": "µM"}]}
{"compound": "N[C@H](C(=O)O)[C@H]1[C@H](C(=O)O)[C@H]1c1ccccc1", "values": [{"measurement": "Ki", "setting": "[1]", "result": "> 280", "unit": "µM"}, {"measurement": "EC50", "setting": "[2]", "result": "> 300", "unit": "µM"}, {"measurement": "IC50", "setting": "[4]", "result": "> 300", "unit": "µM"}]}
{"compound": "N[C@@H](C(=O)O)[C@H]1[C@@H](C(=O)O)[C@H]1c1ccccc1", "values": [{"measurement": "Ki", "setting": "[1]", "result": "> 280", "unit": "µM"}, {"measurement": "EC50", "setting": "[2]", "result": "> 300", "unit": "µM"}, {"measurement": "IC50", "setting": "[3]", "result": "> 300", "unit": "µM"}]}
{"compound": "N[C@H](C(=O)O)[C@H]1[C@H](C(=O)O)[C@@H]1c1ccccc1", "values": [{"measurement": "Ki", "setting": "[1]", "result": "> 280", "unit": "µM"}, {"measurement": "EC50", "setting": "[2]", "result": "> 300", "unit": "µM"}, {"measurement": "IC50", "setting": "[3]", "result": "> 300", "unit": "µM"}]}
{"compound": "N[C@@H](C(=O)O)[C@@H]1[C@H](C(=O)O)[C@H]1c1ccccc1", "note": "(stereo in doubt; 47)", "values": [{"measurement": "Ki", "setting": "[1]", "result": "> 280", "unit": "µM"}, {"measurement": "EC50", "setting": "[5]", "result": "> 300", "unit": "µM"}, {"measurement": "IC50", "setting": "[3]; bhk", "result": "> 300", "unit": "µM"}]}
{"compound": "N[C@H](C(=O)O)[C@H]1[C@@H](C(=O)O)[C@@H]1c1ccccc1", "values": [{"measurement": "Ki", "setting": "[1]", "result": "> 280", "unit": "µM"}, {"measurement": "EC50", "setting": "[2]", "result": "> 300", "unit": "µM"}, {"measurement": "IC50", "setting": "[3]", "result": "> 300", "unit": "µM"}]}
{"compound": "N[C@@H](C(=O)O)[C@@H]1[C@@H](C(=O)O)[C@H]1c1ccccc1", "values": [{"measurement": "Ki", "setting": "[1]", "result": "> 280", "unit": "µM"}, {"measurement": "EC50", "setting": "[2]", "result": "> 300", "unit": "µM"}, {"measurement": "IC50", "setting": "[3]", "result": "> 300", "unit": "µM"}]}
{"compound": "N[C@@H](C(=O)O)[C@@H]1[C@H](C(=O)O)[C@H]1c1ccccc1", "note": "(stereo in doubt; 44)", "values": [{"measurement": "Ki", "setting": "[1]", "result": "> 280", "unit": "µM"}, {"measurement": "EC50", "setting": "[2]", "result": "> 300", "unit": "µM"}, {"measurement": "IC50", "setting": "[3]", "result": "> 300", "unit": "µM"}]}
{"compound": "N[C@@H](C(=O)O)[C@H]1[C@@H](C(=O)O)[C@@H]1c1ccccc1", "values": [{"measurement": "Ki", "setting": "[1]", "result": "> 280", "unit": "µM"}, {"measurement": "EC50", "setting": "[2]", "result": "> 300", "unit": "µM"}, {"measurement": "IC50", "setting": "[3]", "result": "> 300", "unit": "µM"}]}
{"compound": "N[C@@H](C(=O)O)[C@H]1[C@H](C(=O)O)[C@H]1c1ccccc1", "values": [{"measurement": "Ki", "setting": "[1]", "result": "> 280", "unit": "µM"}, {"measurement": "EC50", "setting": "[4]", "result": "> 300", "unit": "µM"}, {"measurement": "IC50", "setting": "[4]", "result": "> 300", "unit": "µM"}]}
{"compound": "N[C@H](C(=O)O)[C@@H]1[C@@H](C(=O)O)[C@@H]1c1ccccc1", "values": [{"measurement": "Ki", "setting": "[1]", "result": 50, "unit": "µM"}]}
{"compound": "N[C@@H](C(=O)O)[C@@H]1[C@@H](C(=O)O)[C@@H]1c1ccccc1", "values": [{"measurement": "Ki", "setting": "[1]", "result": "> 280", "unit": "µM"}, {"measurement": "EC50", "setting": "[2]", "result": "> 300", "unit": "µM"}, {"measurement": "IC50", "setting": "[4]", "result": "> 300", "unit": "µM"}]}
{"compound": "N[C@H](C(=O)O)[C@H]1[C@@H](C(=O)O)[C@H]1c1ccccc1", "values": [{"measurement": "Ki", "setting": "[1]", "result": "> 280", "unit": "µM"}, {"measurement": "EC50", "setting": "[2]", "result": "> 300", "unit": "µM"}, {"measurement": "IC50", "setting": "[3]", "result": "> 300", "unit": "µM"}]}
{"compound": "N[C@H](C(=O)O)[C@@H]1[C@H](C(=O)O)[C@@H]1c1ccccc1", "values": [{"measurement": "Ki", "setting": "[1]", "result": "> 280", "unit": "µM"}, {"measurement": "EC50", "setting": "[2]", "result": "> 300", "unit": "µM"}, {"measurement": "IC50", "setting": "[3]", "result": "> 300", "unit": "µM"}]}
{"compound": "N[C@@H](C(=O)O)[C@H]1[C@H](C(=O)O)[C@@H]1c1ccccc1", "values": [{"measurement": "Ki", "setting": "[1]", "result": "> 280", "unit": "µM"}, {"measurement": "EC50", "setting": "[2]", "result": "> 300", "unit": "µM"}, {"measurement": "IC50", "setting": "[3]", "result": "> 300", "unit": "µM"}]}
